Data on 7 compounds can be found in ChEMBL document CHEMBL2218924, “A broad activity screen in support of a chemogenomic map for kinase signalling research and drug discovery” (Biochem J, 2013).

Protein sequences, listed by entry. Tags and fused reporters are not part of them. Lines headed by an entry give the natural chain unless they say otherwise; changes in a name come on top.
UniProt Q86Z02: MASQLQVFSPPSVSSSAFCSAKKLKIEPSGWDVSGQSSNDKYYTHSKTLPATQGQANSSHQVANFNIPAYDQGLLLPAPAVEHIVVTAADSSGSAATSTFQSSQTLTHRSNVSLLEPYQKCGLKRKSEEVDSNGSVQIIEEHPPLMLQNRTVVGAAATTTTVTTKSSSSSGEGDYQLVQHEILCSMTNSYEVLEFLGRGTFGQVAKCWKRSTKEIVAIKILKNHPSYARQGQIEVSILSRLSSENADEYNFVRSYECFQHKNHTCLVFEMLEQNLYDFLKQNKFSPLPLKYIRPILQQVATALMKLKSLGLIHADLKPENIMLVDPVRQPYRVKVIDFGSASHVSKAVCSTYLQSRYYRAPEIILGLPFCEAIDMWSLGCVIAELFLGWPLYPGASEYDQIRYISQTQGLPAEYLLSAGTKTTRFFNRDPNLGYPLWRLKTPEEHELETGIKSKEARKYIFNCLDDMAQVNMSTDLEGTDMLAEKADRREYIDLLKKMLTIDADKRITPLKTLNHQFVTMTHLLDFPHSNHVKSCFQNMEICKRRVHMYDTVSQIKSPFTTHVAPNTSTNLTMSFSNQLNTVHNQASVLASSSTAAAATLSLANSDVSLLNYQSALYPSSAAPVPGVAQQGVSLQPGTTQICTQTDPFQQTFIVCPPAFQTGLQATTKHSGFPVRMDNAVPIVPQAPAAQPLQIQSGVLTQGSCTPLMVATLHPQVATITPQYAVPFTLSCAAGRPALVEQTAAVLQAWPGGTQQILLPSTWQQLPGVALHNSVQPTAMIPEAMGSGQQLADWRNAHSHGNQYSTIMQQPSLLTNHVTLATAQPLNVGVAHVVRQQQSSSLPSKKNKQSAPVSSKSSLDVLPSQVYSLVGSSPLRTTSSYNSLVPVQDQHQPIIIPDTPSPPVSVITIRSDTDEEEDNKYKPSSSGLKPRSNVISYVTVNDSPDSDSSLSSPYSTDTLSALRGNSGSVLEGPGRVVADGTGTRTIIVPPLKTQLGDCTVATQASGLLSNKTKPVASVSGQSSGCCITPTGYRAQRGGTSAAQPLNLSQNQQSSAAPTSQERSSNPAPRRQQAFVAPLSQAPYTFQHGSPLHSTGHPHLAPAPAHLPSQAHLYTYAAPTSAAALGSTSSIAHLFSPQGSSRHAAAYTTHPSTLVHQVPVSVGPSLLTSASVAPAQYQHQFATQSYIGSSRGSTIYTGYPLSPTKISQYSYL
UniProt P05771, whole entry, looked up: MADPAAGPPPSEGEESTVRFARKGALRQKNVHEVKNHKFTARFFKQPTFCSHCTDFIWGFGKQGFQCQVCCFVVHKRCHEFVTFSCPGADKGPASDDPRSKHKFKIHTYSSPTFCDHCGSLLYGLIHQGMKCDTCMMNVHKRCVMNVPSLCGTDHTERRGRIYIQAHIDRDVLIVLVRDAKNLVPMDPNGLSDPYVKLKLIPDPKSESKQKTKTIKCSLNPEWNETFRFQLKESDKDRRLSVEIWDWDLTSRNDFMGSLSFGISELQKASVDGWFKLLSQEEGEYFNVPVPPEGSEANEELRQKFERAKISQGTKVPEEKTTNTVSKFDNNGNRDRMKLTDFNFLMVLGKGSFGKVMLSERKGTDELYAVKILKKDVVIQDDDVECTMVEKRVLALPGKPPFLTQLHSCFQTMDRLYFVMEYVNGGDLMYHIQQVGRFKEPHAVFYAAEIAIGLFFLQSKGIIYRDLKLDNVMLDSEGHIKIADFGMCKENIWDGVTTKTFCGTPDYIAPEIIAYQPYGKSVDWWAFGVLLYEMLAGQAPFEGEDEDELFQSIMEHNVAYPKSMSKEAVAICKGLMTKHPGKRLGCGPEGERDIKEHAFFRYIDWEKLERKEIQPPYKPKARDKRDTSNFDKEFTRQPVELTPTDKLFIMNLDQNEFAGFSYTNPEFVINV
UniProt P34947, whole entry, looked up: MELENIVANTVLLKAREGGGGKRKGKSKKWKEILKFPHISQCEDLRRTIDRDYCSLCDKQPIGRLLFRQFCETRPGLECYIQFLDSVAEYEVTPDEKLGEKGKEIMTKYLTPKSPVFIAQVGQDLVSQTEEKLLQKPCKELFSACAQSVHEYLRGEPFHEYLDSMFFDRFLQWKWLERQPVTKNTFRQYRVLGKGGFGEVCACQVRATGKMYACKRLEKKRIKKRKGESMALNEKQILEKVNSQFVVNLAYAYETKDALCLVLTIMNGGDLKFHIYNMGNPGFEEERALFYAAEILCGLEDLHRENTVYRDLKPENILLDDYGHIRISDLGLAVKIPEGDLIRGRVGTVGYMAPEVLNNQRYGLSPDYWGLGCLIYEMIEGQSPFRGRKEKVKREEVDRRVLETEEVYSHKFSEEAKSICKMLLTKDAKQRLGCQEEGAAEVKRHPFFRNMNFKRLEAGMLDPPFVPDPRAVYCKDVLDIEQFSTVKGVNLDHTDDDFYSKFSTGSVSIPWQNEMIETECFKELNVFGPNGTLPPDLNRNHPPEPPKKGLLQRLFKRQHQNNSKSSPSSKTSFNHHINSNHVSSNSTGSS
UniProt Q9BYT3: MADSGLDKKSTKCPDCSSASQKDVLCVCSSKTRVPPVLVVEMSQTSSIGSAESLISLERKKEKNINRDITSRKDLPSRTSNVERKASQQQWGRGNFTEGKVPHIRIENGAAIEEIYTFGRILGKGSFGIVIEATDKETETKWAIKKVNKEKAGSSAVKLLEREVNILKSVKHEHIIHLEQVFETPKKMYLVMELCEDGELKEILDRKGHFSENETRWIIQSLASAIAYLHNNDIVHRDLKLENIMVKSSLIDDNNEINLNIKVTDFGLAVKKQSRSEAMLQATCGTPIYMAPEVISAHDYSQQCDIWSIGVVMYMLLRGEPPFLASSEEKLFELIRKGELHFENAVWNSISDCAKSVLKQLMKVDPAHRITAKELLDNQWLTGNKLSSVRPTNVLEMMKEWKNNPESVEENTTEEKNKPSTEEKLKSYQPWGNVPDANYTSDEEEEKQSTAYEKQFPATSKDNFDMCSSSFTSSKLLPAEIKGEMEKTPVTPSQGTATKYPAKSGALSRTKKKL
UniProt Q9NWZ3, whole entry: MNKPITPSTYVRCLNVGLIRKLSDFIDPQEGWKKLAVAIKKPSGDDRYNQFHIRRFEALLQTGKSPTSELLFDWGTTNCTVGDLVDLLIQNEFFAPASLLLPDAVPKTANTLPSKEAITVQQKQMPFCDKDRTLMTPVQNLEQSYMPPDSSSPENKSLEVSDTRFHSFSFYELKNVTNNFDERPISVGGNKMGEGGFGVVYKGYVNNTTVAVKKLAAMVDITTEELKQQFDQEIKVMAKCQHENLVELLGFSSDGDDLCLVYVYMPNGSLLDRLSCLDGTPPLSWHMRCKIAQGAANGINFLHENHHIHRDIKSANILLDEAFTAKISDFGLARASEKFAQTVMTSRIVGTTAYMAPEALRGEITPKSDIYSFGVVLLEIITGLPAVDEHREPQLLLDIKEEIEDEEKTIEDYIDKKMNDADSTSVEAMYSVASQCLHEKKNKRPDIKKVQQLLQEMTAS
UniProt P51617, whole entry, looked up: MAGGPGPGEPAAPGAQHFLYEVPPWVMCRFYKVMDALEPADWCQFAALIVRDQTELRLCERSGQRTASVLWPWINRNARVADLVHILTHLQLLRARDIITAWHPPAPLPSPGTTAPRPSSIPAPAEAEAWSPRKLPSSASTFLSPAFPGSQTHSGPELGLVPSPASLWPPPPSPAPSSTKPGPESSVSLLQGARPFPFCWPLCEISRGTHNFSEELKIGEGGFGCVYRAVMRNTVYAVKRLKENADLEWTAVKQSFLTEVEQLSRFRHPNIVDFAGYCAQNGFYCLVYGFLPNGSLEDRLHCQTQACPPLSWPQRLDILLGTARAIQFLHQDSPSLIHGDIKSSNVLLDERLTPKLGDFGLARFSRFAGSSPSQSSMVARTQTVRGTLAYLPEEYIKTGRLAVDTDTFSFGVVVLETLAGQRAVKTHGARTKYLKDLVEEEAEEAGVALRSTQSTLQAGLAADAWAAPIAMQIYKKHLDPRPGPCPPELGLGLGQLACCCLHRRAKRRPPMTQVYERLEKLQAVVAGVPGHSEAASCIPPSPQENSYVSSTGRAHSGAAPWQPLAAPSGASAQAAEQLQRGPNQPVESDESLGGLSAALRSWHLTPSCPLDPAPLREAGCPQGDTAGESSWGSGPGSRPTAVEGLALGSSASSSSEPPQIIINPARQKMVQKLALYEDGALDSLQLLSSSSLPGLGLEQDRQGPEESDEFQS
UniProt Q8TDX7: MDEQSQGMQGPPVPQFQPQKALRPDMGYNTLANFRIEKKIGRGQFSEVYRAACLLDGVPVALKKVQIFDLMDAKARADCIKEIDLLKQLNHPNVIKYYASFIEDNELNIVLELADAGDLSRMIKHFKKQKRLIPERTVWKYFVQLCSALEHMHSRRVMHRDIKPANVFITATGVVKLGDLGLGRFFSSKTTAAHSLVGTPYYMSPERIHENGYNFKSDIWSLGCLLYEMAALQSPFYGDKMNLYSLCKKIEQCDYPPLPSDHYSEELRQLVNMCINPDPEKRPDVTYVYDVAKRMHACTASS
UniProt P80192: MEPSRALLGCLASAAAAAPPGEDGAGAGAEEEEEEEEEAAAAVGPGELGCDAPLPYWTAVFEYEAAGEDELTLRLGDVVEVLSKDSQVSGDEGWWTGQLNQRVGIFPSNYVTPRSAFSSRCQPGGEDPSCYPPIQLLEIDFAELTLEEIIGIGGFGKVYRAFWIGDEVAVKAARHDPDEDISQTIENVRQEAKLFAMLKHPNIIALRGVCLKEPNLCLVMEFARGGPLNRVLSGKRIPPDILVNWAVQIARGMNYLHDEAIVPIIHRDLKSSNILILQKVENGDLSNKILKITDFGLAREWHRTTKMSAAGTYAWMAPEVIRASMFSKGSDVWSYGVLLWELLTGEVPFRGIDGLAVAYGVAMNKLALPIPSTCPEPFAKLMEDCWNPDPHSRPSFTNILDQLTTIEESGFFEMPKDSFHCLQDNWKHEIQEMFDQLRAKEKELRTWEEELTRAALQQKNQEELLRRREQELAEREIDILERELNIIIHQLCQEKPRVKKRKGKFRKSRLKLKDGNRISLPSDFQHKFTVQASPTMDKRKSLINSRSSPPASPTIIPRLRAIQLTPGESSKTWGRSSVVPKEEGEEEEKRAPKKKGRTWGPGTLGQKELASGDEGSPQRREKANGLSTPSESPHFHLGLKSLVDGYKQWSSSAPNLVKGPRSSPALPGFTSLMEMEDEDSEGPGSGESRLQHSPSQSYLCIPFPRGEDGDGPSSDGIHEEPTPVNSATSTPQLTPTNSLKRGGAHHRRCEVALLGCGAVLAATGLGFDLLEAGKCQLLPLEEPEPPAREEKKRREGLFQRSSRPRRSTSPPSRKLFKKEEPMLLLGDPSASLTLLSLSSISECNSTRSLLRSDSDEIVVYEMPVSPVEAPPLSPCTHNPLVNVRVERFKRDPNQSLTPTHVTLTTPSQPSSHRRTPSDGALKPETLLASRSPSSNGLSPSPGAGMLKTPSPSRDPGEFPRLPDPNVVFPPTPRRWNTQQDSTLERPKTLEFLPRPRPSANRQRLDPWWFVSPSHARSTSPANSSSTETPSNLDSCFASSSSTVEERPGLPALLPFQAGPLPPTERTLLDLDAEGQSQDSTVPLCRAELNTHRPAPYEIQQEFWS

Test [1] has as its target Homeodomain-interacting protein kinase 1 (Homo sapiens) (UniProt Q86Z02). Conditions: at 1 µM; call rule not given here.
Test [2] deals with T1, Serine/threonine-protein kinase STK11 (Homo sapiens) (UniProt Q15831).
T1 sequence (whole entry): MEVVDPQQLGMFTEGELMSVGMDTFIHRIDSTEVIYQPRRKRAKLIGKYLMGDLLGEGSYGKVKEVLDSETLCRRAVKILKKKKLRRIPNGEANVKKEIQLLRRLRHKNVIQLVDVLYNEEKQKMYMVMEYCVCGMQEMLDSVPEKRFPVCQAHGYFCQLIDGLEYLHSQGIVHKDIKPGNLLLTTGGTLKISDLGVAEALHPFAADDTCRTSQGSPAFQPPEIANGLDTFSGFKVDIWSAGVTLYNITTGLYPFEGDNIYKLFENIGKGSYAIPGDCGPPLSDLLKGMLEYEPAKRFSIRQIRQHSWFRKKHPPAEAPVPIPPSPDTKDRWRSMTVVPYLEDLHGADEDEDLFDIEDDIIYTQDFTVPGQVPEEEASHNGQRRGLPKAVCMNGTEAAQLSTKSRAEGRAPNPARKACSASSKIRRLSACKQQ
Conditions: at 10 µM.

Test [3] deals with Protein kinase C beta type (Homo sapiens) (UniProt P05771). Conditions: at 1 µM.
The target in test [4] is G protein-coupled receptor kinase 5 (Homo sapiens) (UniProt P34947). Conditions: at 1 µM.
Test [5] concerns the target T2, Protein kinase C iota type (Homo sapiens) (UniProt P41743).
T2 sequence (whole entry): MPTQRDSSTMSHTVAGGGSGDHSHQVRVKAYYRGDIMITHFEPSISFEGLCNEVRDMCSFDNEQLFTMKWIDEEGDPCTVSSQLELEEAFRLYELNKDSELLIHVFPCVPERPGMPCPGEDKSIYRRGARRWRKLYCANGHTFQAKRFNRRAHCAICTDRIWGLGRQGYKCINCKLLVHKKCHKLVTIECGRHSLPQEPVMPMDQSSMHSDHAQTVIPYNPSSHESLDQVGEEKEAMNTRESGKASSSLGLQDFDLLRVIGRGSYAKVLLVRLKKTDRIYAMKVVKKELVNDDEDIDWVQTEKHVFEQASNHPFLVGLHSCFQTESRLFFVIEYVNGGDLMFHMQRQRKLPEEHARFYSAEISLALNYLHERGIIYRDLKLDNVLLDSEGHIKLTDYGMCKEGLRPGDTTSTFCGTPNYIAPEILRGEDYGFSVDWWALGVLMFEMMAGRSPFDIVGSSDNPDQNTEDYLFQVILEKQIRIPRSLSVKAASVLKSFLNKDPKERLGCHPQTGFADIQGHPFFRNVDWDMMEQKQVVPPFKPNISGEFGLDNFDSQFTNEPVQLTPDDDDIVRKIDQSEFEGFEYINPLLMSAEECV
Conditions: at 10 µM.

Test [6] has as its target Fibroblast growth factor receptor 4 (Homo sapiens) (UniProt P22455). Conditions: at 1 µM.
Test [7] addresses T3, Serine/threonine-protein kinase D1 (Homo sapiens) (UniProt Q15139).
T3 sequence (whole entry): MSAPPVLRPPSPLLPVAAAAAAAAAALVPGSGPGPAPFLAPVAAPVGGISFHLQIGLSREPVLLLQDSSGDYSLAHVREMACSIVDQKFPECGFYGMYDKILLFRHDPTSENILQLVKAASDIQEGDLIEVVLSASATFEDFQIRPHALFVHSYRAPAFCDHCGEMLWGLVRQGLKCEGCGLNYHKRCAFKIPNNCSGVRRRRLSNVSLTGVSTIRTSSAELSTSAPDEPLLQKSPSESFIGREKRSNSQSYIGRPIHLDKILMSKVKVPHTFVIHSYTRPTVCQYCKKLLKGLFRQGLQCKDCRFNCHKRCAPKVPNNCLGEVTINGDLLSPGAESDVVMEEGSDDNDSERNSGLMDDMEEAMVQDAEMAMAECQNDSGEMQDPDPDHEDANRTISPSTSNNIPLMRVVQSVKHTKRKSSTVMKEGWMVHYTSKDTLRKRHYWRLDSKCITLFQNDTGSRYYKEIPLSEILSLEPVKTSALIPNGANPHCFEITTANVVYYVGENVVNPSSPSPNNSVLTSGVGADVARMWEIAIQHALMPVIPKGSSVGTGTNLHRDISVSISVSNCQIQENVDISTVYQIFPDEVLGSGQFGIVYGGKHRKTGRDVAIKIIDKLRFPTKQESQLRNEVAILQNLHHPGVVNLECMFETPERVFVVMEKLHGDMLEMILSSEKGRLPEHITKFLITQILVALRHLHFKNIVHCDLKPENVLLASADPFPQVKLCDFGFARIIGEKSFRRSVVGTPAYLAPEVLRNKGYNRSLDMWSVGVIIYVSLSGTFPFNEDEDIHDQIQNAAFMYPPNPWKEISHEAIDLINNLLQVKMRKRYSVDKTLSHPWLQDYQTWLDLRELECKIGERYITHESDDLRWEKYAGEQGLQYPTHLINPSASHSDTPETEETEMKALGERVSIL
Conditions: at 10 µM.

The target in test [8] is T4, MAP kinase-activated protein kinase 5 (Homo sapiens) (UniProt Q8IW41).
T4 sequence (whole entry): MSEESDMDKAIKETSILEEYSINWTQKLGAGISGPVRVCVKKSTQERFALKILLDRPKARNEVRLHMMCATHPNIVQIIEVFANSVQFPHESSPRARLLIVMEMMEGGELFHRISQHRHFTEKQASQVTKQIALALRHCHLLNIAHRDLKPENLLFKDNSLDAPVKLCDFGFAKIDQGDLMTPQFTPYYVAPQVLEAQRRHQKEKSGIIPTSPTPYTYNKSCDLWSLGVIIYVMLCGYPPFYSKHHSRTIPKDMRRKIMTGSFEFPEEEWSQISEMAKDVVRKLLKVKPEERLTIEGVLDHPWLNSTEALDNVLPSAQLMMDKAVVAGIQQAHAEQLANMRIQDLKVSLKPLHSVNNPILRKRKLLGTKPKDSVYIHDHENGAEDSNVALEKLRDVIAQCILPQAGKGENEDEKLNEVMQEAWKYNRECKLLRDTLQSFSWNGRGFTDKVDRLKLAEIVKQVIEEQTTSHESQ
Conditions: at 10 µM.

For test [9], the target named is Serine/threonine-protein kinase 33 (Homo sapiens) (UniProt Q9BYT3). Conditions: at 1 µM.
Test [10] addresses Interleukin-1 receptor-associated kinase 4 (Homo sapiens) (UniProt Q9NWZ3). Conditions: at 1 µM.
For test [11], the target named is T5, Serine/threonine-protein kinase TAO2 (Homo sapiens) (UniProt Q9UL54).
T5 sequence (whole entry): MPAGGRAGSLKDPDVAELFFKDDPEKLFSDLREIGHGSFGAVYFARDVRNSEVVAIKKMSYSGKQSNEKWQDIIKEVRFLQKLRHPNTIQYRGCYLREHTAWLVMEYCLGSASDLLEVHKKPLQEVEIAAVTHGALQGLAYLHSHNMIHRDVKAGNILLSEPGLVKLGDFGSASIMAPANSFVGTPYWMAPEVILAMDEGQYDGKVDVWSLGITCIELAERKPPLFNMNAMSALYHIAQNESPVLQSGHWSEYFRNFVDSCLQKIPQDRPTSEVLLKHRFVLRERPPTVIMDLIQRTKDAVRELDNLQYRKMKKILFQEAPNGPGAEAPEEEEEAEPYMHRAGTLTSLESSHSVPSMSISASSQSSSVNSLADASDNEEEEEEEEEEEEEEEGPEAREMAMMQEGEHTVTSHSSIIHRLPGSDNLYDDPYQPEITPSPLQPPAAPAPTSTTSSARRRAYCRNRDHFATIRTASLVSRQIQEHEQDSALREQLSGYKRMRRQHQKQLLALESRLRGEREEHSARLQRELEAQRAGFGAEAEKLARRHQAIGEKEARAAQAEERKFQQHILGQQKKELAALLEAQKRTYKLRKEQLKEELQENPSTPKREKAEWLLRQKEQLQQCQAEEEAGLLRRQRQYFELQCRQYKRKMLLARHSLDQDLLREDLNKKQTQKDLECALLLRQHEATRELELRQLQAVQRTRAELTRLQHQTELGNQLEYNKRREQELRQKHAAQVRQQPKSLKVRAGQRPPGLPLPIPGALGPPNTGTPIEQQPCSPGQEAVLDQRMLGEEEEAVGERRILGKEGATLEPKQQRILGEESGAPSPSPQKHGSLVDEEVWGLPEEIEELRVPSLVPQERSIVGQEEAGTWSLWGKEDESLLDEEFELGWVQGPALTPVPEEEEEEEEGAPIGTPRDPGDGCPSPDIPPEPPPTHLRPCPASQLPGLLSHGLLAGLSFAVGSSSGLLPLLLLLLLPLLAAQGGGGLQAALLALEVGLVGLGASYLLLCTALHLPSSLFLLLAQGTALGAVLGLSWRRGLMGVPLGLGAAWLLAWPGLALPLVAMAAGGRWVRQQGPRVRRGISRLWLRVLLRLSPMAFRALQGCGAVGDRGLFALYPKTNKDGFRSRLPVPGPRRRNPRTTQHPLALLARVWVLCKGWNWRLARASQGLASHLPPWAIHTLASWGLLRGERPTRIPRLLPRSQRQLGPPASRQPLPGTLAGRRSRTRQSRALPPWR
Conditions: at 1 µM.

Test [12] addresses Interleukin-1 receptor-associated kinase 1 (Homo sapiens) (UniProt P51617). Conditions: at 10 µM.
Test [13] concerns the target Tyrosine-protein kinase JAK3 (Homo sapiens) (UniProt P52333). Conditions: at 10 µM.
Test [14] has as its target T6, Serine/threonine-protein kinase ULK2 (Homo sapiens) (UniProt Q8IYT8).
T6 sequence (whole entry): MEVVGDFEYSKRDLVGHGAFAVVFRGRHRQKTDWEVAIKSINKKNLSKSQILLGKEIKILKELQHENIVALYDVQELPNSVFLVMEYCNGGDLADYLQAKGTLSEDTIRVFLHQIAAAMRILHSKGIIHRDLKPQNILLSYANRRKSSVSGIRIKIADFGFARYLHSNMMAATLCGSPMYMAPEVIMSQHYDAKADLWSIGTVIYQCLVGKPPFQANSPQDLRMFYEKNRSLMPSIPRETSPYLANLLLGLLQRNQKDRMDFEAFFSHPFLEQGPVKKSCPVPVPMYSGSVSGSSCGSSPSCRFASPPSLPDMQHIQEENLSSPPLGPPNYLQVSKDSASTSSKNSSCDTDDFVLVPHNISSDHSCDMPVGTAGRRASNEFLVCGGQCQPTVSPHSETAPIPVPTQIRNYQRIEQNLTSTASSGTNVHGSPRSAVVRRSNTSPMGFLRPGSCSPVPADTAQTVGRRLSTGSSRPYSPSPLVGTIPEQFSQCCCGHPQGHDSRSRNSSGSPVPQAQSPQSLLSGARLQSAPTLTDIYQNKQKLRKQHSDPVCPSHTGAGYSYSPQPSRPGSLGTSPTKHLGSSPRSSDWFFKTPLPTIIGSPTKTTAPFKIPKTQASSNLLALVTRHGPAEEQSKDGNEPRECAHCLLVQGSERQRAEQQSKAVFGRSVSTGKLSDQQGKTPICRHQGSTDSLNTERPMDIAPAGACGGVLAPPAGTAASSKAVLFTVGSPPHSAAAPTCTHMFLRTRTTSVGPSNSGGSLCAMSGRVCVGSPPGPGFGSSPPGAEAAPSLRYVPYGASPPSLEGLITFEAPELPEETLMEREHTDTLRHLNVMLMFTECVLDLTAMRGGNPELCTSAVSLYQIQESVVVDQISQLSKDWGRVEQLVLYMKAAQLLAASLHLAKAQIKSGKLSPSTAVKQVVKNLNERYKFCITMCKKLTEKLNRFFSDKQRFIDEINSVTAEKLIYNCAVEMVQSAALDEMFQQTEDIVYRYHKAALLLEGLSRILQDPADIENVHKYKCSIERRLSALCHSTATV
Conditions: at 1 µM.

For test [15], the target named is Serine/threonine-protein kinase Nek7 (Homo sapiens) (UniProt Q8TDX7). Conditions: at 1 µM.
Test [16] deals with Protein kinase C gamma type (Homo sapiens) (UniProt P05129). Conditions: at 10 µM.
Test [17] concerns the target Mitogen-activated protein kinase kinase kinase 9 (Homo sapiens) (UniProt P80192). Conditions: at 1 µM.
The target in test [18] is Serine/threonine-protein kinase mTOR (Homo sapiens) (UniProt P42345). Conditions: at 1 µM.

For part of these data: What follows is the remainder of the data, with few or none of the strong results. The entries are a selection whose mix differs from that of the whole data set.

In the case of `Oc1ccc(Nc2nc(-c3ccc(Cl)cc3)cs2)cc1`, the residual activity is 109% in [1], 97% in [2] and 105% in test [3].

As to `O=C1Nc2ccccc2/C1=C1/Nc2ccccc2/C1=N\OCCC(O)CO` (stereo not drawn), the residual activity worked out at 79% in test [4] and 111% in [5].

With `CC(=O)O/N=C1\C(=C2\C(=O)Nc3cc(Br)ccc32)Nc2ccccc21`, the residual activity in test [6] came to 103%; in test [7] it was 81%; in [8], 94%.

Turning to `CN(C)c1ccc(/C=C2\C(=O)Nc3ccccc32)cc1`, in test [9], the residual activity was 95%.

As for `Oc1ccc(-c2nc(-c3ccc(F)cc3)c(-c3ccncc3)[nH]2)cc1`, the residual activity in [10] was 107%.

`O=C1c2ccccc2-[n+]2ccc3c([nH]c4ccccc43)c21`: the residual activity in test [11] was 97%; in [12], 103%; in [13] it was 102%; in test [14], 98%; in test [15] it was inactive: 96%; in [16], 101%.

Consider `Nc1ccc2ncnc(NCCc3ccc(Oc4ccccc4)cc3)c2c1`, for which the residual activity in test [17] was found to be 96%; in test [18], 101%.
